This is an account of results in ChEMBL document CHEMBL1132669, “New generation dopaminergic agents. 7. Heterocyclic bioisosteres that exploit the 3-OH-phenoxyethylamine D2 template” (Bioorg Med Chem Lett, 1999).

The chains behind the UniProt entries cited, without tags or fusion partners.
UniProt P35462, whole entry: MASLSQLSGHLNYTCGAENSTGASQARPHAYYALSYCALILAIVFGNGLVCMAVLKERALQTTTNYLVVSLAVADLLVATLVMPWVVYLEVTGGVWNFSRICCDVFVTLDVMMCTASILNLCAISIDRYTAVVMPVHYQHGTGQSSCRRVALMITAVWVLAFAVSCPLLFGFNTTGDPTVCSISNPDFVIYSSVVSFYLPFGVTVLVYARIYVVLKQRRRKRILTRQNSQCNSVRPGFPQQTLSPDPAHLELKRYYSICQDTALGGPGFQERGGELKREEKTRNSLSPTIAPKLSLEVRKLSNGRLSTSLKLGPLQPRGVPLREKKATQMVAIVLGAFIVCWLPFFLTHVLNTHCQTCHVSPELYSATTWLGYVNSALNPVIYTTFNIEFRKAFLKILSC
UniProt P14416, whole entry: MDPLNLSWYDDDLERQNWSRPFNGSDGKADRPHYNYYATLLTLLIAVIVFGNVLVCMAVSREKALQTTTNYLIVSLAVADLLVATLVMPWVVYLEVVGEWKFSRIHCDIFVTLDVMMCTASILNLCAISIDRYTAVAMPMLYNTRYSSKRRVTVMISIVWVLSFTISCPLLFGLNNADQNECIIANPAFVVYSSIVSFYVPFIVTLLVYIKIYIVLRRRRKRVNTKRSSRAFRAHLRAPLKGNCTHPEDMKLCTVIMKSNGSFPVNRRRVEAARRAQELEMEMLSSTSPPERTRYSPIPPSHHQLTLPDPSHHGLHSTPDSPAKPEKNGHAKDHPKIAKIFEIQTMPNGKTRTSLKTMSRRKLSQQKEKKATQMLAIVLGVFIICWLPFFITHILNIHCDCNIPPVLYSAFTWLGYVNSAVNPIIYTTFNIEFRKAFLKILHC
UniProt P61169, whole entry: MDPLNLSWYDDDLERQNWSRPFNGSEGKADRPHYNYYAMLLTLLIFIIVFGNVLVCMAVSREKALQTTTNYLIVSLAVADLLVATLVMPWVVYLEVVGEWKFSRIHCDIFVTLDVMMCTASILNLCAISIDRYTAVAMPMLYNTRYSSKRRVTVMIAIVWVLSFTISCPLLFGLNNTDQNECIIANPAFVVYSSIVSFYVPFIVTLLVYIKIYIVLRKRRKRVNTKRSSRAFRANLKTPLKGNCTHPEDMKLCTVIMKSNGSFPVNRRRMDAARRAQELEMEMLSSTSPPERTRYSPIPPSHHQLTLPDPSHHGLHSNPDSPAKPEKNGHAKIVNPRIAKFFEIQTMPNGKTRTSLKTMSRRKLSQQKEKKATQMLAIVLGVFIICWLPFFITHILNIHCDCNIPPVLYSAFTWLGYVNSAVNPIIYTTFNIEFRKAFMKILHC

For one assay, the target named is D(3) dopamine receptor (Homo sapiens, UniProt P35462). In words: Inhibition of [3H]spiperone binding to human Dopamine receptor D3 in CHO cell membranes.
The target of another assay is D(2) dopamine receptor (Homo sapiens, UniProt P14416). In words: Inhibition of [3H]spiperone binding to human Dopamine receptor D2 in CHO cell membranes.
Assay [1] deals with D(2) dopamine receptor (Rattus norvegicus) (UniProt P61169). The assay can be described thus: Relative binding affinity for low and hugh affinity type dopamine D2 receptors in rat striatal membranes. The assay is classed as cell membranes. Particulars: Striatum, Membrane.

For orientation: Ki means the equilibrium dissociation constant of an inhibitor or competing ligand from its target. Regarding `O=c1[nH]c2cccc(OCCNCc3ccccc3)c2[nH]1`, the Ki at D(3) dopamine receptor was 4.1 nM; on D(2) dopamine receptor, 3.9 nM. `Oc1nc2c(OCCNCc3ccccc3)cccc2[nH]1`: the Ratio in assay [1] came out at 18.
